# According to US20170217976A1, “6-(AMINO ACID)-MORPHINAN DERIVATIVES IN COMBINATION WITH PERMEATION […] FOR USE AS AN ORALLY, […], TRA[…] NASALLY AD[…]” (C[…], priority 2014, published 2017):
# Amino acid sequences for entries named in this document (tags omitted).
# UniProt P33533, whole entry: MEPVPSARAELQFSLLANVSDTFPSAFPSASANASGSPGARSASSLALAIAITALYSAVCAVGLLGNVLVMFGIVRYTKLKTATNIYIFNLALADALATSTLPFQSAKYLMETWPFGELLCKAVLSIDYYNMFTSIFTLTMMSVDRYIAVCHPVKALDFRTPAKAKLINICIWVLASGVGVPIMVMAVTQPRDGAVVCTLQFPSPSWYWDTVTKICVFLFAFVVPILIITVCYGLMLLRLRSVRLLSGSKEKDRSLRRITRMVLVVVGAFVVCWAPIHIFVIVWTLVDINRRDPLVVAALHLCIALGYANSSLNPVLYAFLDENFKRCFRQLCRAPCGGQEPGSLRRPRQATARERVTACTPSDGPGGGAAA
# UniProt P41144, whole entry: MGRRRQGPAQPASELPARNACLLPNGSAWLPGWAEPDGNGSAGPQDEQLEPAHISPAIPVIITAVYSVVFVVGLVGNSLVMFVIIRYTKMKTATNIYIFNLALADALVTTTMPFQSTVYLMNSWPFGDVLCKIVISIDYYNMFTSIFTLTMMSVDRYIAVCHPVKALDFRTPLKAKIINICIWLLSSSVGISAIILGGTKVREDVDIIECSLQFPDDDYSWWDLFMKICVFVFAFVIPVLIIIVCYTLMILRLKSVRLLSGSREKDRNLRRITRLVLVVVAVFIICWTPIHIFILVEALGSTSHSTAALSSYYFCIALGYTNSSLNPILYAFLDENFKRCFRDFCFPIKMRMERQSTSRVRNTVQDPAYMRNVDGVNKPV
# Legend:
# DOR = DOR (Rattus norvegicus, UniProt P33533); assay: Opioid receptor binding, DOR, rat brain membranes; settings: read-out: Binding Ki DOR; Table 2-6, rat brain membranes
# KOR = KOR (Cavia porcellus, UniProt P41144); assay: Opioid receptor binding, KOR, guinea pig brain membranes; settings: read-out: Binding Ki KOR; Table 2-6, guinea pig brain membranes
compound,measurement,setting,value
CO[C@@]12CC[C@H](NCCC(=O)OC(C)(C)C)[C@@H]3Oc4c(O)ccc5c4[C@@]31CCN(CC1CC1)[C@@H]2C5,Ki,DOR,2.1 nM
same,Ki,KOR,1.41 nM
